Data reported in article PMC4761891, “CD36 is a co-receptor for hepatitis C virus E1 protein attachment” (Scientific Reports, 2016).

Amino acid sequences for entries named in this document (tags omitted). Residues count along the entry.
UniProt P16671, 2-472 limits assumed: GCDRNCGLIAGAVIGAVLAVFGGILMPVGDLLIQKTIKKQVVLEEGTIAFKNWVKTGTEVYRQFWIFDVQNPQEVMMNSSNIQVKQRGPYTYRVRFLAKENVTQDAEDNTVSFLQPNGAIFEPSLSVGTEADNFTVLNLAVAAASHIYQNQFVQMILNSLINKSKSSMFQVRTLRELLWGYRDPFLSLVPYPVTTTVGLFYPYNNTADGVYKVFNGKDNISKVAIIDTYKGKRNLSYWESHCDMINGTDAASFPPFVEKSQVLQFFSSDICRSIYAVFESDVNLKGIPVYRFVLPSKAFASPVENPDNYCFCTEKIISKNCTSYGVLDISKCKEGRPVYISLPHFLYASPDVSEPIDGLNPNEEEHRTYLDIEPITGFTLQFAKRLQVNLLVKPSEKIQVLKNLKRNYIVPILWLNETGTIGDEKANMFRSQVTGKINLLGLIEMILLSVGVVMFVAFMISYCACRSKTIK

How the values were obtained:
[1] = target: interaction between CD36 and HCV E1 (Homo sapiens, UniProt P16671); settings: 20 μM SSO, lysates of HCV-infected Huh7.5 cells
HCV [2] = assay: Anti-HCV activity in HCV-infected Huh7.5 cells (intracellular HCV RNA, qRT-PCR); type: cell-based, hepatitis C virus; settings: cytotoxicity by MTT assay vs anti-HCV EC50, 72 hrs
HCV [3] = assay: Time-of-addition assay; type: cell-based, hepatitis C virus; settings: 10 μM SSO, Huh7.5, HCV 300 IU/cell
Method: Huh7.5 cells were infected with HCV (300 IU/cell) and incubated at 4 °C for 2 hrs, the cells were then washed with cold PBS and shifted to 37 °C (set as 0 hr time point) to initiate synchronous infection. At −2, −1, 0, 1, 2, 3, 4 hr, 10 μM SSO, or 10 nM bafilomycin A1, or solvent control was added, and the cells were incubated for 2 hrs prior to removal (the exception is t = −2 hr and −1 hr where compound were added back after removal of the virus and incubated for additional 2 hrs prior to removal). Intracellular HCV RNA was detected after 72 hrs incubation. Inhibitory ratio was calculated as % relative to infectious control (0%). Fitted lines represent sigmoidal time-dependent curves.

CD36 = target: T1, CD36 (Homo sapiens, UniProt P16671); assay: BIAcore surface plasmon resonance binding to CD36-HA; settings: immobilised CD36-HA; SSO 50, 100, 200, 500 μM
T1 construct: made in house; host or cells: 293T/17 cells

CCCCCCCC/C=C\CCCCCCCC(=O)ON1C(=O)CC(S(=O)(=O)O)C1=O (stereo not shown) [SSO, sulfo-N-succinimidyl oleate]
effect on the interaction between CD36 and HCV E1 (Co-IP) [1]: could directly disrupt the interaction between CD36 and HCV E1 | selective index (SI) (HCV [2]): above 326 | activity when added after the temperature shift (HCV [3]): almost completely lost its activity | direct binding to CD36 (BIAcore) (CD36): direct binding between CD36 and SSO was detected
